Experiments:
TRAF2−/− MEFs = assay: TNF-induced cell death in TRAF2 homozygous mutant MEFs (reference); type: cell-based, mouse; settings: 10 ng/ml TNF-α and 0.25 μg/ml cycloheximide
Description: (§1) We next examined the sensitivity of the lines to TNF-induced cell death. […] As a reference, TNF receptor-associated factor 2 (TRAF2) homozygous mutant MEFs were used in the same assay. TRAF2^−/− cell survival in our hands was consistent with previous reports (˜20% at 10 ng/ml TNF-α and 0.25 μg/ml cycloheximide)(Yeh et al. (1997) Immunity 7:715-725)

[1] = system: wild-type and GSK-3β-heterozygous cells; assay: Cell death / viability (trypan blue) of wild-type and GSK-3β heterozygous embryonic fibroblast cell lines; type: cell-based, mouse; settings: TNF-α 4, 10 or 50 ng/ml and cycloheximide 0.25 μg/ml, 24 hr
Description: To probe the mechanism by which GSK-3β impacted TNF cytotoxicity, immortalized mouse embryonic fibroblast (MEF) cell lines from two wild-type ([…]), two GSK-3β heterozygous (+/−1 and +/−2) and two GSK-3β homozygous mutant (−/−1 and −/−2) embryos were derived from embryos. Immunoblotting of cell lysates from these cell lines confirmed the loss of GSK-3β expression in the two GSK-3β^−/− cell lines (FIG. 1C), whereas expression of proteins important for TNF signaling, such as TNF-R1 and IKKβ were equivalent.
as §1
Figure (A) Twenty-four hours after the indicated TNF-α (4, 10 or 50 ng/ml) plus cycloheximide (0.25 μg/ml) treatment, viable cells were determined by negative staining with trypan blue. Viability is expressed normalized to untreated controls. Independently derived GSK-3β^+/+ EF cell clones are indicated by +/+1 and +/+2; GSK-3β^+/− by +/−1 and +/−2; and GSK-3β^−/− by −/−1, and −/−2. […] Cells were uniformly treated with cycloheximide (CHX, 0.25 μg/ml). […] (C) Sensitivity of GSK-3β^−/− EF cells to various apoptotic stimuli. […]

TNF-α: tumor necrosis factor-α, apoptosis inducing ligand of TNFR1
cell survival (TRAF2−/− MEFs): ~20%
cell viability after TNF-α exposure [1]: relatively unaffected

Source: patent US20010053351A1, “Inhibition of GSK-3 beta” (priority 1999, published 2001)
